# Yeast mating assay 2: variants of the scFv Ab-95

The measurements come from Engelhart et al. 2022 (doi:10.1038/s41597-022-01779-4) through the FLAb antibody collection.

Target peptide (SARS-CoV-2 spike, HR2 region): PDVDLGDISGINAS

Parent scFv Ab-95: VH joined to VL by three GGGGS repeats. Changes lie in the light chain CDRs alone.
VH: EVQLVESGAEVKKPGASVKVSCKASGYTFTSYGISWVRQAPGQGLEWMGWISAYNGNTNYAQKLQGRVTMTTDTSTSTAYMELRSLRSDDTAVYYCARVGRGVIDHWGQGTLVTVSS
VL: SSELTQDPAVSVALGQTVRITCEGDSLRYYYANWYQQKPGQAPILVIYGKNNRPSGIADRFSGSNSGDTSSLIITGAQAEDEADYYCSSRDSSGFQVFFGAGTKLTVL

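The parent was found by panning a naive human phage display library on the peptide. In library AAYL52, one, two or three CDR residues were substituted; doubles and triples were drawn at random. Affinity was read by AlphaSeq, a pooled yeast mating assay with surface-displayed partners. Binding brings cells together so that they mate, and sequencing counts the barcode pairs among the diploids. Each replicate has its own calibration line, from reference interactions of the BCL2 family. Each pool was mated in three replicate cultures.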

Changes read parent residue, position, new residue, counted from the first residue of the VL shown.
This list gathers variants with a substitution at G49 (VL, numbered from residue 1).
Each Kd is an estimate from the mating assay, the geometric mean of the replicates in which the pair was seen; lower is stronger.
A pair that was not seen in any replicate is written "nd"; this usually means weak binding, but a binder can also be missed.
In this assay the parent's reference entry averaged 200 nM; its copy inside this library read 180 nM.
Background: pairings of library AAYL52 with three empty control strains gave a value in 28% of cases (median 8.2 µM, 5th percentile 800 nM). Values in that range, when seen in few replicates, are hard to tell from nonspecific mating.

Variant G49Q+D91V+V97P showed 16 µM (1 of 3 replicates). For D25T+G49F+S92W, the assay gave nd (0 of 3 replicates). Variant G24N+G49N+S55C showed 11 µM (2 of 3 replicates). Variant L27C+A32V+G49R showed 1.3 µM (3 of 3 replicates). Variant Y29K+Y30F+G49H gave 7.8 µM (2 of 3 replicates). For Y29P+G49P+S55C, the assay gave 840 nM (1 of 3 replicates). For G49M+K50F+Q96F, the assay gave 12 µM (1 of 3 replicates). Variant Y29T+G49P+S89Y showed 120 µM (2 of 3 replicates).

Variant G49K+S89G+S93E showed 320 nM (3 of 3 replicates). Variant Y29N+G49D gave 61 nM (3 of 3 replicates). With L27T+Y31E+G49S the result was 520 nM (3 of 3 replicates). Variant G49W+K50I+D91S gave 19 µM (3 of 3 replicates). Variant E23S+L27V+G49D gave nd (0 of 3 replicates). Variant G49K+S88H+F95P showed 48 µM (1 of 3 replicates). For G49H+S55G+S88R, the assay gave 52 µM (2 of 3 replicates). Variant G49S+R90V+D91K gave nd (0 of 3 replicates).

Variant Y31I+G49Y showed nd (0 of 3 replicates). For N33V+G49I+V97H, the assay gave 10 µM (2 of 3 replicates). Variant A32F+G49N+N52D showed 950 nM (2 of 3 replicates). With G49W+N52E+R90D the result was 13 µM (2 of 3 replicates). Variant Y31L+G49V+R53M showed nd (0 of 3 replicates). Variant D25H+R28M+G49Q showed 3.2 µM (1 of 3 replicates). For N33V+G49D+R90N, the assay gave 29 µM (2 of 3 replicates). For N33S+G49F+N52E, the assay gave nd (0 of 3 replicates).

Variant G24H+R28H+G49V showed nd (0 of 3 replicates). Variant Y31Q+G49Q+P54N showed 3.5 µM (2 of 3 replicates). With G49I+P54C+S89Q the result was 78 µM (2 of 3 replicates). Variant G49S+S55M+Q96I showed 6.8 µM (1 of 3 replicates). With G49I+P54E+Q96E the result was 6.3 µM (2 of 3 replicates). Variant G49R+R53P+S89T showed nd (0 of 3 replicates). Variant G49D+V97E showed nd (0 of 3 replicates). For S26H+L27Y+G49T, the assay gave 50 µM (1 of 3 replicates).

For G49E, the assay gave 1.1 µM (3 of 3 replicates). Variant Y31H+G49S+D91K showed 1.2 µM (3 of 3 replicates). Variant E23G+Y29C+G49Y showed nd (0 of 3 replicates). For G49F+D91W, the assay gave 4.7 µM (2 of 3 replicates). Variant G49N gave 500 nM (3 of 3 replicates). Variant G49R+N51S+S92P gave nd (0 of 3 replicates). For D25W+G49I+F98L, the assay gave 100 µM (2 of 3 replicates). For G49C+N51K+Q96S, the assay gave 6.4 µM (2 of 3 replicates).

For Y29S+G49K+Q96M, the assay gave 22 µM (3 of 3 replicates). Variant G49Y+N51R showed nd (0 of 3 replicates).

The closing 4 entries, repeated:

| changes | Kd (apparent) | seen in |
|---|---|---|
| D25W+G49I+F98L | 100 µM | 2/3 |
| G49C+N51K+Q96S | 6.4 µM | 2/3 |
| Y29S+G49K+Q96M | 22 µM | 3/3 |
| G49Y+N51R | nd | 0/3 |